Laboratory results from paper PMC5748751, “Study of Structure and Permeability Relationship of Flavonoids in Caco-2 Cells” (Nutrients, 2017).

Assays:
[1] = Stability of flavonoids in D-Hank's buffer relative to methanol; assay type: physicochemical; details: 20 μM flavonoid, HPLC peak area in D-Hank's / peak area in methanol × 100%
Caco-2 cell monolayer = experiment: Cellular accumulation (CA) of flavonoids in Caco-2 cell monolayer; details: Caco-2 monolayer

## O=C1C[C@@H](c2ccc(O)cc2)Oc2cc(O)ccc21 [Compound 21, Liquiritigenin]
[1]
  Relative concentration of flavonoids, D-Hank's/methanol (%): 71.02%
Caco-2 cell monolayer
  Ratioc (ratio of CA B to A to CA A to B): 1.94
